Reference: patent publication US6262094A (priority 1999, dated 2001)

Tested on: KB-V1 (DSM ACC 149), human cervix carcinoma, multidrug-resistant
Assay: Growth inhibition, MTT reduction in microtiter plates
Type: cell-based
Settings: KB-V1, multiresistant cell line, incubation period of 5 days

SMILES | IC50 KB-V1* cervix
C=Cc1nc(/C=C(\C)[C@@H]2C[C@@H]3O[C@@H]3CCC[C@H](C)[C@H](O)[C@@H](C)C(=O)C(C)(C)[C@@H](O)CC(=O)O2)cs1 [20-vinyl-epo A, [1S-[1R*,3R*(E),7R*,10S*,11R*,12R*,16S*]]-3-[2-(2-Ethenyl-4-thiazolyl)-1-methylethenyl]-7,11-dihydroxy-8,8,10,12-tetramethyl-4,17-dioxabicyclo[14.1. 0]heptadecane-5,9-dione] | 3 ng/mL (≈ 5.93 nM)
C/C(=C\c1csc(CN)n1)[C@@H]1C[C@@H]2O[C@@H]2CCC[C@H](C)[C@H](O)[C@@H](C)C(=O)C(C)(C)[C@@H](O)CC(=O)O1 [21-amino-epo A] | 30 ng/mL (≈ 59 nM)
C/C(=C\c1csc(CN)n1)[C@@H]1C[C@@H]2O[C@]2(C)CCC[C@H](C)[C@H](O)[C@@H](C)C(=O)C(C)(C)[C@@H](O)CC(=O)O1 [21-amino-epo B, [1S-[1R*,3R*(E),7R*,10S*,11R*,12R*,16S*]]-3-[2-[2-(Aminomethyl)-4-thiazolyl]-1-methylethenyl]-7,11-dihydroxy-8,8,10,12,16-pentamethyl-4,17-dioxabicyclo[14.1.0]heptadecane-5,9-dione] | 1.5 ng/mL (≈ 2.87 nM)
C/C(=C\c1csc(CN=[N+]=[N-])n1)[C@@H]1C[C@@H]2O[C@]2(C)CCC[C@H](C)[C@H](O)[C@@H](C)C(=O)C(C)(C)[C@@H](O)CC(=O)O1 [21-azido-epo B, [1S-[1R*,3R* (E),7R*, 10S*,11R*,12R*,16S*]]-3-[2-[2-(Azidomethyl)-4-thiazolyl]-1-methylethenyl]-7,11-dihydroxy-8,8,10,12,16-pentamethyl-4,17-dioxabicyclo[14.1. 0]heptadecane-5,9-dione] | 0.5 ng/mL (≈ 0.911 nM)
C/C(=C\c1csc(CCl)n1)[C@@H]1C[C@@H]2O[C@@H]2CCC[C@H](C)[C@H](O)[C@@H](C)C(=O)C(C)(C)[C@@H](O)CC(=O)O1 [21-chloro-epo A] | 8 ng/mL (≈ 15.1 nM)

Values after ≈ are worked out from the molar mass of the structure shown.
